## Antibody variant affinities, Ab-14 light chain, assay 1

All variants were tested on one target, the spike HR2 peptide PDVDLGDISGINAS (SARS-CoV-2).

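The parent was found by panning a naive human phage display library on the peptide. Library AAYL50 holds single substitutions and randomly drawn double and triple substitutions in the CDRs. The scFvs were displayed on barcoded MATa yeast, the peptide on MATalpha yeast. Pairs that bind mate more often; barcode pairs of the diploids are counted by sequencing. A regression on co-assayed BCL2-family reference pairs converts the normalised counts of each replicate to an apparent Kd. Each pool was mated in three replicate cultures.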

Ab-14 is the parent antibody, in scFv form: VH, then a 15-residue (Gly4Ser)3 linker, then VL. The heavy chain is unchanged in all variants.
VH: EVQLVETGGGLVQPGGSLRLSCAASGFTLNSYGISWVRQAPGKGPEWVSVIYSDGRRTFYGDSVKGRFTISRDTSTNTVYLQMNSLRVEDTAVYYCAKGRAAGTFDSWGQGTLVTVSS
VL: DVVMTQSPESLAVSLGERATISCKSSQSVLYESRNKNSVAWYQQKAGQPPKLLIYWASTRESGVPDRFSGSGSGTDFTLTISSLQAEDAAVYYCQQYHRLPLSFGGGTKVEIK

Changes read parent residue, position, new residue, counted from the first residue of the VL shown.
Scale: log10 of Kd in nM, estimated from mating counts; low values are strong binders.
The mean shown is taken over the replicates in which the pair was detected.
Where no diploid with the target was found in any replicate, the entry reads "nd": below detection, most likely a poor binder, though not proof of it.
As a blank, each scFv also met three strains without target: over library AAYL50, 18% of these pairings were detected, typically at 4.19 and seldom below 2.99. Also given: how often the same scFv was detected with the empty control strains.

changes	log10 Kd (nM), mean	seen in	signal with controls
A40E/T59I/S62L	nd	0 of 3	3 of 9
S33L/R60M/Q96L	4.36	2 of 3	0 of 9
R60H/R99K/P101V	nd	0 of 3	0 of 9
Q27V/S33G/L100H	4.82	2 of 3	3 of 9
N35E/K36P/L102W	nd	0 of 3	1 of 9
Y31R/S33R/W56T	4.32	2 of 3	5 of 9
L30T/S33P/H98N	0.88	3 of 3	0 of 9
S28V/N37D/R60E	nd	0 of 3	2 of 9
E32I/T59D/E61H	2.82	3 of 3	3 of 9
K24Y/V29W/T59N	2.71	2 of 3	0 of 9
N35K/W56H/L102E	5.24	1 of 3	2 of 9
S58G/E61H/L102T	4.59	1 of 3	2 of 9
Y31D/Q96F/S103D	1.14	3 of 3	2 of 9
S26Q/T59Y/L100T	1.35	3 of 3	4 of 9
E32N/A40C/Q95A	nd	0 of 3	0 of 9
S38G/Q95K	nd	0 of 3	0 of 9
K24F/Y31R	2.50	3 of 3	1 of 9
L30S/S103Q	0.47	3 of 3	1 of 9
S33A/S38W/A40H	nd	0 of 3	0 of 9
K24G/S33C/K36P	4.71	2 of 3	4 of 9
N37Q/L102G/S103Q	1.07	3 of 3	2 of 9
A40L/W56G/H98Q	5.09	1 of 3	3 of 9
Q27P/N37P/A40V	nd	0 of 3	6 of 9
A40I/P101I	3.81	1 of 3	1 of 9
S28H/L30D/R34S	0.76	3 of 3	2 of 9
S33K/Y97W/S103W	4.03	2 of 3	1 of 9
S28L/Y31T/R34D	1.36	3 of 3	5 of 9
V29N/R34W/V39S	4.43	1 of 3	5 of 9
S33Y/V39H	nd	0 of 3	0 of 9
R34S/N35T/K36W	0.82	3 of 3	1 of 9
E32V/W56A/R60K	0.31	3 of 3	0 of 9
N35F/S38N/R99T	2.15	3 of 3	1 of 9
A40I/A57T/L102I	4.50	1 of 3	2 of 9
K24I/E32C/L100A	nd	0 of 3	4 of 9
K36N/V39K/E61P	nd	0 of 3	0 of 9
R34Y/S38P/H98S	nd	0 of 3	0 of 9
K24D/W56T/H98K	1.99	3 of 3	2 of 9
V39T/S62R	nd	0 of 3	2 of 9
Q27T/Q96P/L100H	4.27	2 of 3	2 of 9
S28K/Y31N/N35Q	nd	0 of 3	0 of 9
Q27F/S28Q/K36P	1.50	3 of 3	0 of 9
S33A/V39I/E61F	1.20	3 of 3	5 of 9
K24R/S28E/Q95M	5.64	2 of 3	1 of 9
S28N/T59P/P101V	nd	0 of 3	1 of 9
K24S/Q95M/P101T	nd	0 of 3	0 of 9
K36A/R60Y/R99M	0.72	3 of 3	5 of 9
K24N/Y31R/S33V	2.60	3 of 3	2 of 9
Y31S/R34D/N35W	2.91	3 of 3	1 of 9
L30W/E61P/L100S	3.25	1 of 3	1 of 9
S26I/N35M/A40S	nd	0 of 3	0 of 9
R34Q/L100S/P101C	5.10	2 of 3	1 of 9
R34P/Q95A/Y97C	nd	0 of 3	1 of 9
S26A/N37P/S62N	2.98	3 of 3	3 of 9
S28I/N37A/Q95Y	nd	0 of 3	0 of 9
K24I/K36M/Q96R	4.27	2 of 3	2 of 9
S25F/S26M/V29T	0.17	3 of 3	1 of 9
A57T/Q96K	5.19	2 of 3	2 of 9

A selection of 6 entries from above:

changes,"log10 Kd (nM), mean",seen in,signal with controls
S33L/R60M/Q96L,4.36,2 of 3,0 of 9
Y31R/S33R/W56T,4.32,2 of 3,5 of 9
Q27F/S28Q/K36P,1.50,3 of 3,0 of 9
K24R/S28E/Q95M,5.64,2 of 3,1 of 9
K24S/Q95M/P101T,nd,0 of 3,0 of 9
L30T/S33P/H98N,0.88,3 of 3,0 of 9

For reference, the parent read 0.65 as the reference entry and 1.68 as a member of this library.

From the AlphaSeq antibody data of Engelhart et al. 2022 (doi:10.1038/s41597-022-01779-4), copy in the FLAb collection.